The numbers were not newly measured in patent US11007356B2, “Ingestible device for delivery of therapeutic agent to the gastrointestinal tract” (Progenity, Inc., priority 2018, dated 2021), which cites them from elsewhere.

The conditions of this data set: self-administration of 360,000 units, medical observation; cited from earlier work.

Take Dalteparin: the outcome of overdose is on record as “no notable sequelae”.
